The results in this text go back to BindingDB's records for doi:10.1021/jm00107a020 (Pfizer, 1991).

Experiment [1] has as its target T1, Aldo-keto reductase family 1 member A1 (Sus scrofa, UniProt P50578).
T1 sequence (P50578 whole entry): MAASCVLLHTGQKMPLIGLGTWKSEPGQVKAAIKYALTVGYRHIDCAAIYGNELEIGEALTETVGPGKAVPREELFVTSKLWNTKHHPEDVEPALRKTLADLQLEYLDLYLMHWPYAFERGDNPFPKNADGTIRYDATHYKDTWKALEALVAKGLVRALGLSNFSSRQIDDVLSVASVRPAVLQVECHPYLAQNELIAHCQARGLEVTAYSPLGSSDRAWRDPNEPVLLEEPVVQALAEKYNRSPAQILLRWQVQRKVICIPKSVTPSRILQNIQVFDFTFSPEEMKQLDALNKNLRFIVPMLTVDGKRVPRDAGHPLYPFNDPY
The experiment in a line: Inhibitory activity was measured against pig kidney aldehyde reductase in the presence of 1 uM compound with 3-pyridine carboxaldehyde as substrates.

The target of experiment [2] is Aldo-keto reductase family 1 member B1 (Rattus norvegicus) (UniProt P07943). The experiment in a line: Inhibitory activity was measured against rat lens aldose reductase in the presence of 1 uM compound with DL-glyceraldehyde as substrates.

One may read the IC50 as the midpoint of a concentration-inhibition curve. On to `CCOC(=O)C1CN(Cc2ccccc2)C(=O)C1=O` (configuration not stated), for which the IC50 in experiment [1] worked out at 35.4 µM; in experiment [2], 0.84 µM.
